According to ChEMBL document CHEMBL3862004, “A Cyclic Tetrapeptide ("Cyclodal") and Its Mirror-Image Isomer Are Both High-Affinity μ Opioid Receptor Antagonists” (J Med Chem, 2016):
Active and inactive are the calls of the source.

Legend:
[1] = system: Rattus norvegicus; test: Inhibition of morphine-induced antinociception in iv dosed Sprague-Dawley rat assessed as reduction in tail withdrawal latency treated 20 mins after morphine addition measured up to 120 mins post morphine injection by tail-flick test
[2] = system: Rattus norvegicus; test: Inhibition of morphine-induced antinociception in Sprague-Dawley rat assessed as reduction in tail withdrawal latency at 5 mg/kg, iv treated 20 mins after morphine addition measured 30 and 60 mins post morphine injection by tail-flick test
[3] = system: Rattus norvegicus; test: Inhibition of morphine-induced analgesia in iv dosed Sprague-Dawley rat assessed as reduction in fore-paw heat withdrawal threshold treated 20 mins after morphine addition measured up to 120 mins post morphine injection by hot plate test
[4] = system: Rattus norvegicus; test: Inhibition of morphine-induced analgesia in Sprague-Dawley rat assessed as reduction in fore-paw heat withdrawal threshold at 5 mg/kg, iv treated 20 mins after morphine addition measured 30 mins post morphine injection by hot plate test

Measured: inhibition

Cc1cc(O)cc(C)c1C[C@@H]1NC(=O)[C@H](CCCCN)NC(=O)[C@H](Cc2ccccc2)NC(=O)[C@@H](CCCNC(=N)N)NC1=O
active: [1] Dose-dependent effect | [2] | [3] Dose-dependent effect | [4]
